Assay results taken from paper PMC9062740.

Target: filamentous actin (F-actin) polymerized from rabbit muscle G-actin (rabbit) (UniProt P68135)
Experiment: co-sedimentation; high-speed cosedimentation; CLIP-170 fragments 4 μM, phalloidin 0.8 μM, F-actin 0, 1, 2, 4, 8, 12, 16, 24 and 28 μM in PEM50, room temperature; apparent KD from a simple binding equation, 1:1 binding ratio assumed, Bmax set to 1

| Kd | Substance |
| --- | --- |
| 90 µM | CLIP-170 CG2 fragment (206-288) (from UniProt P30622 206-288) (domain or fragment) |
| 20 µM | CLIP-170 CG2-S3 fragment (203-350) (from UniProt P30622 203-350) (domain or fragment) |
| 10 µM | CLIP-170 S2-CG2-S3 fragment (156-350) (from UniProt P30622 156-350) (domain or fragment) |
